Laboratory results from patent US20100112601A1, “NOVEL MONOCLONAL ANTIBODY AND USE OF THE SAME” (Kyoto University, priority 2006, published 2010).

Experiments:
PAC1 [1] = biological target: T1, PAC1 (Homo sapiens, UniProt P41586); assay: Inhibition of PACAP27-stimulated GTPγ-35S binding in membranes of CHO cells expressing PAC1 receptor; assay type: biochemical; set-up: expressed in transfected cells; host or cells: Chinese hamster ovary (CHO) cells; details: CHO membranes expressing PAC1, PACAP27 stimulation; order of magnitude; read-out: IC50 of inhibition of GTP-γS binding
T1 sequence (P41586 21-468): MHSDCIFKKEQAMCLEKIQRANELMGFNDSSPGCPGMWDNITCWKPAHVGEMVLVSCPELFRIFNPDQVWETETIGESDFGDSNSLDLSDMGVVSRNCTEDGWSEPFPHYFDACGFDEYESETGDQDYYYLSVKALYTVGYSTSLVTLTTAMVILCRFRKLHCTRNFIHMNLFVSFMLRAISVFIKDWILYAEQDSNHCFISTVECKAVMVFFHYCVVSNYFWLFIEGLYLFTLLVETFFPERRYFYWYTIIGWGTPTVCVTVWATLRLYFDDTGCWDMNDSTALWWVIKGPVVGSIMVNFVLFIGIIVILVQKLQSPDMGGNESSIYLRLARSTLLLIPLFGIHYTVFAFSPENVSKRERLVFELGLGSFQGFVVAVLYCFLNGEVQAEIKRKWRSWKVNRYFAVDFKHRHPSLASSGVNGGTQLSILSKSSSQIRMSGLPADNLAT
Procedure: Chinese hamster ovary (CHO) cells having the PAC1 receptor gene introduced and expressed therein were disrupted by a Polytronhomogenizer, and 150 fold diluted with a buffer solution containing 20 mM Tris-HCl, 1 mM EDTA, 5 mM MgCl2, 150 mM NaCl, 1 μM GDP, and 1% BSA to make 100 μL. 10 μL of the mouse anti-PAC1 monoclonal antibody obtained in Example 2 was added at various concentrations, and this was followed by incubation for 15 minutes at 25° C. Subsequently, 10 μl of 5 nM PACAP27 was added, and 10 μl of 10 nM GTPγ-^35S was further added, and this was followed by incubation for 60 minutes at 25° C. Subsequently, aspiration filtration was performed using a water-moistened GF/F glass filter (Whatman), and the filter was twice washed with 1.5 mL of a washing buffer solution containing 50 mM Tris-HCl (pH 7.4), 1 mM EDTA, 5 mM MgCl2, 0.05% CHAPS, and 0.1% BSA. The radioactivity of GTPγ-^35S captured on the filter was detected using a liquid scintillator. The measurement was performed twice. Taking a sample supplemented with D-PBS in place of the antibody as 100% bound, and one supplemented with the antagonist PACAP6-38 to obtain a final concentration of 1.5×10^−6 M as 0% bound, an evaluation was performed in terms of % of control.

PAC1 [2] = biological target: T1, PAC1; details: Eur. J. Biochem. 207, 239 (1992); read-out: reported value of IC50 in the literature; cited from earlier work

PACAP(6-38)NH2
IC50 (PAC1 [1]): ~100 nM | IC50 (PAC1 [2]): 2 nM

Read-outs that look alike come from different tables or passages of the source.
